Results reported in patent publication US7358236B1 (priority 2002, dated 2008).

Test system: P22 rat carcinosarcoma

Compound	THF (tumor blood flow), % of saline control (rat, in vivo, ip, 30 mg/kg)	Tumor blood flow, % of control (antihypertensive co-administered with CA-4DP 30 mg/kg i.p., approximately 1 hour after treatment)
Combretastatin A-4 Disodium Phosphate Prodrug [CA-4DP]	14 % of saline control	
CC(C)NCC(O)COc1cccc2ccccc12 (racemic) [propranolol, 1-[ispropylamino]3-[1-napthyloxy]-2-propanol hydrocholoride]		7.6 % of control
